Protein sequences, listed by entry. Tags and fused reporters are not part of them.
UniProt P11309, whole entry, looked up: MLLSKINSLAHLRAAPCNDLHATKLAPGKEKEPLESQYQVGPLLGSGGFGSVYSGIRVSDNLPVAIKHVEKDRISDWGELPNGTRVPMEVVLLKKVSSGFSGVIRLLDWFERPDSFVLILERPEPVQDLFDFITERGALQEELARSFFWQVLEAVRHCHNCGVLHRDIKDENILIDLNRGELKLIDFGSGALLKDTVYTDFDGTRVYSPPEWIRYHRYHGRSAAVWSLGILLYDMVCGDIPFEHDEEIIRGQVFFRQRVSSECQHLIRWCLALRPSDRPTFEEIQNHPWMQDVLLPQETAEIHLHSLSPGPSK

The test has as its target Serine/threonine-protein kinase pim-1 (Homo sapiens, UniProt P11309). Briefly: Inhibition of recombinant PIM1 (unknown origin) assessed as change in melting temperature at 10 uM by SYPRO orange dye-based differential scanning fluorimetric method. On the technique in general: Differential scanning fluorimetry follows unfolding on heating by fluorescence.
On to `O=C1NC(=S)n2c1cc1ccc(-c3ccncc3)cc1c2=O`, for which the ΔTm turned out to be 2 °C. Turning to `O=C1NC(=S)n2c1cc1cccc(Cl)c1c2=O`, the ΔTm turned out to be 1.9 °C.

Regarding `O=C1NC(=S)n2c1cc1ccc(Nc3ccccc3)cc1c2=O`, the ΔTm came out at 1.9 °C.

For `O=C1NC(=S)n2c1cc1cc(Cl)ccc1c2=O`, the ΔTm is 5.1 °C.

By ΔTm is commonly meant the shift of the melting midpoint relative to a reference.
